The target of test [1] is human α-thrombin (Homo sapiens, UniProt P00734). As to the kind of experiment: Proteinase inhibition assay, human α-thrombin. Conditions: for Ratio / Ki: Table 1; for Ratio: Ki trypsin / Ki thrombin; for Ki: read-out: Ki (μM) Thrombin, 25° C., 0.05M TRIS pH 7.4, 0.15M NaCl, 0.1% PEG.
Test [2] addresses bovine trypsin (Bos taurus, UniProt P00760). Description: Proteinase inhibition assay, bovine trypsin. Conditions: read-out: Ki (μM) Trypsin; Table 1; 25° C., 0.05M TRIS pH 7.4, 0.15M NaCl, 0.1% PEG, 1 mM CaCl2. On the procedure: Assays of human α-thrombin and bovine trypsin were performed at 25° C. in 0.05M TRIS buffer pH 7.4, 0.15M NaCl, 0.1% PEG. Trypsin assays also contained 1 mM CaCl2.
In assays wherein rates of hydrolysis of a p-nitroanilide (pna) substrate were determined, a Thermomax 96-well plate reader was used was used to measure (at 405 nm) the time dependent appearance of p-nitroaniline. sar-PR-pna was used to assay human α-thrombin (Km =125 μM) and bovine trypsin (Km =125 μM). "Sar" is the three letter abbreviation for the amino acid sarcosine (N-methylglycine). p-Nitroanilide substrate concentration was determined from measurements of absorbance at 342 nm using an extinction coefficient of 8270 cm^-1 M^-1.
Activity assays were performed by diluting a stock solution of substrate at least tenfold to a final concentration <0.1 Km into a solution containing enzyme or enzyme equilibrated with inhibitor. Times required to achieve equilibration between enzyme and inhibitor were determined in control experiments. Initial velocities of product formation in the absence (Vo) or presence of inhibitor (Vi) were measured. Assuming competitive inhibition, and that unity is negligible compared Km /[S], [S]/e, and [I]/e (where [S], [I], and e respectively represent the total concentrations, of substrate, inhibitor and enzyme), the equilibrium constant (Ki) for dissociation of the inhibitor from the enzyme can be obtained from the dependence of Vo /Vi on [I] shown in equation 1.
Using the assays described above, the following additional embodiments of the invention were evaluated and shown to be selective for inhibiting thrombin. The constants were determined at pH 7.4 in buffer containing 0.05M Tris, 0.15M NaCl, 0.1% PEG-8000 at room temperature. "ni" denotes Ki >10 μM.

Sequences of proteins named here, by UniProt entry; tags and fusion partners are left off. Residues count along the entry.
UniProt P00760, 24-246 limits assumed: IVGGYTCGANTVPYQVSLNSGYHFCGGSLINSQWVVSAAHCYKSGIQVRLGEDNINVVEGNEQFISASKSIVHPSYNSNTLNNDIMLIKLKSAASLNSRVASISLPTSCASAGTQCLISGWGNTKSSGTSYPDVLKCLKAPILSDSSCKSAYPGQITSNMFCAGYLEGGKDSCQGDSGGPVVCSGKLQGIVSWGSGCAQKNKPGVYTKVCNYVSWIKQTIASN

As usually defined, the Ki is the equilibrium dissociation constant of an inhibitor or competing ligand from its target. As for `NC(=O)[C@H](NC(=O)[C@@H]1CCCN1C(=O)[C@H](N)Cc1ccccc1)[C@H]1CC[C@H](N)CC1`, the Ratio in test [1] was determined as 267. Further, the inhibitory constant (Ki) stood at 3 nM in test [1] and 0.8 µM in test [2].
The matching figures for `NC(=O)[C@@H](NC(=O)[C@@H]1CCCN1C(=O)[C@H](N)Cc1ccccc1)[C@H]1CC[C@H](N)CC1`: 9, 43 nM and 0.408 µM.
For the molecule `NC(=O)[C@H](C[C@H]1CC[C@H](N)CC1)NC(=O)[C@@H]1CCCN1C(=O)[C@H](N)Cc1ccccc1`, the Ratio in test [1] turned out to be 17. Moreover, the Ki is 18.6 nM in test [1] and 0.313 µM in test [2].
With `CNC(=O)C(=O)[C@H](NC(=O)[C@@H]1CCCN1C(=O)[C@@H](Cc1ccccc1)NC)[C@H]1CC[C@H](N)CC1`, in test [1], the Ratio was determined as 2121 and the inhibition constant (Ki) turned out to be 3.3 nM.
Regarding `CNC(=O)C(=O)[C@@H](NC(=O)[C@@H]1CCCN1C(=O)[C@@H](Cc1ccccc1)NC)[C@H]1CC[C@H](N)CC1`, the “Thrombin inhibitor potency of the two isomers compared” value in test [1] (4-4 (L) versus 4-3 (D) at Acg center) is recorded as “more potent thrombin inhibitor”. Moreover, in test [1], the Ratio was 12790 and the Ki came out at 0.09 nM.
Turning to `CN[C@H](Cc1ccccc1)C(=O)N1CCC[C@H]1C(=O)N[C@@H](C[C@H]1CC[C@H](N)CC1)C(=O)C(=O)O`, in test [1], the Ratio stood at 45. For the same molecule, the inhibition constant Ki turned out to be 9.4 nM in test [1] and 0.42 µM in test [2].

(Values after patent US5672582A, “Thrombin inhibitors” (Merck & Co., Inc., priority 1994, dated 1997).)
